This passage reports IC50 results from ChEMBL document CHEMBL1132276, “Development of predictive retention-activity relationship models of tricyclic antidepressants by micellar liquid chromatography” (J Med Chem, 1999).

By UniProt entry, the sequences of proteins in these tests, tags left out.
UniProt P31390, whole entry: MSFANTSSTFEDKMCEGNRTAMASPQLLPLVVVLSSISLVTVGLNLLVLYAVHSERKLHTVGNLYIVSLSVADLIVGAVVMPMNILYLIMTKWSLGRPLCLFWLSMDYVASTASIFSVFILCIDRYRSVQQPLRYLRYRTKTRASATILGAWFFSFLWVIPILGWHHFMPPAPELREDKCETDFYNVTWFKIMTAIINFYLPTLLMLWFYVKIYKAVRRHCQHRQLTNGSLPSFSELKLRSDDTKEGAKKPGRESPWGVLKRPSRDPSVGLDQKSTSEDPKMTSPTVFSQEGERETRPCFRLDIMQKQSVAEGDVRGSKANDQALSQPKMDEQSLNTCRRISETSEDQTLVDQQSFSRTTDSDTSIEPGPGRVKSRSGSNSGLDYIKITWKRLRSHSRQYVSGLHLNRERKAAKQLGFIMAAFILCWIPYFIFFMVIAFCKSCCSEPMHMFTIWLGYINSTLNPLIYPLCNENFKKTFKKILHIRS

The test deals with Histamine H1 receptor (Rattus norvegicus, UniProt P31390). The test is described as follows: Compound tested for its inhibitory activity against Histamine H1 receptor.

As to `CN(C)CCCN1c2ccccc2CCc2ccc(Cl)cc21` [CLOMIPRAMINE], the midpoint of inhibition, the IC50, lay at 200 nM.

As to `CN1CCN2c3ccccc3Cc3ccccc3C2C1` (configuration not stated) [MIANSERIN], 6 nM corresponded to half-maximal inhibition (IC50).
